{
  "source": "patent US7541342B2",
  "about": "“Use of PKC-activating compounds as cardioprotectants and as apoptosis-inducing anti-tumor agents” (University of Tennessee Research Foundation, priority 2005, dated 2009)",
  "key": {"K562 cells": {"system": "K562 cells", "assay": "Cytotoxicity analysis in K562 cells", "conditions": "0.25 μM alone, 72 hours"}, "Bcr-Abl": {"system": "Bcr-Abl", "assay": "Bcr-Abl expression immunoblot in K562 cells", "conditions": "72 hrs; imatinib 10 μM, AD 198 or AD 288 0.25 μM"}},
  "data": [
    {"smiles": "CCCCC(=O)OCC(=O)[C@]1(O)Cc2c(O)c3c(c(O)c2[C@@H](O[C@H]2C[C@H](NCc4ccccc4)[C@H](O)[C@H](C)O2)C1)C(=O)c1c(OC)cccc1C3=O", "note": "[AD 198, N-benzyladriamycin-14-valerate]", "values": [
      {"measurement": "loss of cells, single agent", "setting": "K562 cells", "value": "only marginal loss of cells"},
      {"measurement": "Bcr-Abl expression, single agent", "setting": "Bcr-Abl", "value": "slight decrease"}
    ]}
  ]
}
